# Conditions: in vivo
substance,measurement,setting,value
2-pyridine aldoxime methyl chloride [2-PAM],dye localization in rat nasal cavity,,deposited primarily within this olfactory region
same,drug found in trachea or esophagus,rat,none
